Target: human H4 receptor (Homo sapiens, UniProt Q9H3N8)
Experiment: Binding Assay on Recombinant Human Histamine H4 Receptor
Conditions: Table 2; [3H] histamine competition binding, membranes of SK-N-MC cells transfected with human H4 receptor; average of results

Chains of the proteins cited; added tags and fusions are not shown.
UniProt Q9H3N8, whole entry: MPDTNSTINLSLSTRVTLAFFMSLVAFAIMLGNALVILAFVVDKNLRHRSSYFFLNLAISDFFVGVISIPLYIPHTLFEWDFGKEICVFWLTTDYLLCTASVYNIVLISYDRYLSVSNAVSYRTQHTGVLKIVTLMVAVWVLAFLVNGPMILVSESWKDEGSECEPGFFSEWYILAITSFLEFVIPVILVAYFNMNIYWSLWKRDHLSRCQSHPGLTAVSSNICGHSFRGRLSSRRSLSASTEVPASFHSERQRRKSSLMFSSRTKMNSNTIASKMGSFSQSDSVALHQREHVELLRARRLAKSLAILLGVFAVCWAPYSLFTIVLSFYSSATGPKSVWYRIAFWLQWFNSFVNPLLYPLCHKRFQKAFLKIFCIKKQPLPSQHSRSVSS

| SMILES | Ki [nM] |
| --- | --- |
| CN[C@@H]1CCN(c2cc(C34CC5CC(CC(C5)C3)C4)nc(N)n2)C1 | 2 |
| CN1CCN(c2cc(C34CC5CC(CC(C5)C3)C4)nc(N)n2)CC1 | 6 |

From US8716475B2, “2-aminopyrimidine modulators of the histamine H4 receptor” (Janssen Pharmaceutica NV, priority 2007, dated 2014)
